FN deposit inh – fibronectin deposition inhibition. AH1F fibroblasts, Alexa488-fibronectin deposition fluorescence, overnight. inhibition, % at 12.6 µM. hit rate 0.086% among 350,000. AID 743247;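 active means mean inhibition across replicates of 30% or more, regardless of how many single replicates reach that level; inconclusive means mean under 30% yet at least half of replicates reach 30%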
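Material: AH1F fibroblasts assembling fluorescent fibronectin matrix; amount: 10000 AH1F cells/well; medium: DMEM, 2% serum; reagent: Alexa488-fibronectin, 24 nM final in well; dosing: single compound dose, delivered by pin transfer; incubation: 1 h adhesion, overnight exposure; detection: fluorescence after three HBSS washes, excitation 485 nm, emission 525 nm; measure: fibronectin deposition inhibition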
Yeast UUG start – yeast start codon fidelity modulation; actives 0.13% (n = 350,000); activity score, % at 18.7 µM; S. cerevisiae UUG-firefly luciferase reporter, luminescence/redox ratio;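 active = replicate mean at a twofold rise or more, about +100% in these data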;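 note: firefly luciferase made from a UUG start codon reports start codon fidelity; reporter light over untreated wells divided by growth signal over untreated wells; some hits fall short of that in this replicate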
Cneo AK release – causes C. neoformans cell lysis. lysis activity, % at 15 µM. hit rate 0.2% among 360,000. adenylate kinase release luminescence, 4 h; normalised: neutral wells 0, clomiphene wells 100;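 active means mean lysis activity across replicates of at least 80%, whatever share of replicates individually reach that level; inactive means mean lysis activity below 80%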
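Material: C. neoformans cells | Amount: Yeast cell density of 5 × 10^6 cells/mL | Medium: Fresh YPD growth medium | Dosing: Single dose | Times: Static 4 h at 37 °C with compound, 1 h detection | Detection: AK luminescence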
HIV Env fusion – inhibitors of HIV Env-mediated cell fusion. AID 651610. inhibition, % at 12.3 µM. HeLa-JRFL Env/CEM21 cell fusion, luciferase. hit rate 1.1% among 360,000;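 active means mean replicate inhibition score of at least 50 and every replicate individually at or above 50; inconclusive means only one of the two criteria met; inactive means mean below 50 and not all replicates reaching 50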
PGC1a acetyl inh – lowers PGC1a acetylation signal in U2OS cells; AlphaScreen anti-acetyl-lysine; with virally co-expressed GCN5 acetyltransferase; inhibition, % at 15.6 µM; hit rate 0.17% among 350,000; AID 651687;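 active means every replicate shows inhibition of at least 40%; inconclusive means mean inhibition at least 40% but some replicate below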
miR-122 sensor – miR-122 inhibition in Huh7 cells; Huh7 miR-122 Renilla luciferase sensor, 48 h; neutral wells = 0, positive control = 100; activation (reporter increase), % at 12.5 µM; hit rate 0.3% among 340,000; AID 602342;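 active means mean replicate activation score at least 90 and every replicate individually at or above 90; inconclusive means only one of the two criteria met; inactive means neither criterion met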;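 further: higher luciferase means less miR-122 activity so hits act as miR-122 inhibitors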
A number is an active result; - = inactive; ? = inconclusive; . = not tested or not shown. A selection: hits, their analogues and other compounds. The true share with any hit is near 1.5%.

SMILES	FN deposit inh	Yeast UUG start	Cneo AK release	HIV Env fusion	PGC1a acetyl inh	miR-122 sensor
CCc1ccc(S(=O)(=O)/N=C2\C=C(Nc3ccc(O)cc3)C(=O)c3ccccc32)cc1	.	-	-	.	63	-
Cc1cc(C)c(S(=O)(=O)/N=C2\C=C(Nc3ccc(C(=O)O)cc3)C(=O)c3ccccc32)c(C)c1	-	-	-	73	-	-
Cc1ccc(NC2=C/C(=N\S(=O)(=O)c3cccs3)c3ccccc3C2=O)c(C)c1	.	-	-	.	93	-
O=C(O)c1ccc(NC2=C/C(=N/S(=O)(=O)c3ccccc3)c3ccccc3C2=O)cc1	.	.	.	?	-	-
O=C1C(Nc2ccc(O)cc2)=C/C(=N/S(=O)(=O)c2cccs2)c2ccccc21	-	.	.	95	.	.
CC(=O)Nc1ccc(NC2=CC(=O)c3ccccc3C2=O)cc1	-	-	-	-	.	-
O=C1C=C(Nc2ccc(O)cc2)C(=O)c2ccccc21	47	-	-	-	-	-
Cc1cccc(NC2=C/C(=N/S(=O)(=O)c3cccs3)c3ccccc3C2=O)c1	-	.	.	76	.	.
CCOC(=O)c1c(C)n(-c2ccc(C)cc2)c2c(C(C(C)=O)C(=O)O)c(Br)c(O)c(O)c12 (stereo not given)	.	-	-	.	-	-
CCOC(=O)C(C(C)=O)c1c(Br)c(O)c(O)c2c(C(=O)c3ccc(C)cc3)coc12 (stereo not given)	-	-	-	108	-	-
COc1cc(OC)cc(C(=O)NC(=S)Nc2ccc3c4c(cccc24)CC3)c1	.	.	.	.	-	-
COc1ccc(C(=O)Nc2ccc3c4c(cccc24)CC3)cc1	-	.	.	-	86	-
Cc1cccc(S(=O)(=O)N[C@@H]2CC[C@H](CCNS(=O)(=O)c3ccccc3F)O[C@@H]2CO)c1	-	-	-	-	-	.
C/C=C/c1ccc(OCCOCCNCc2ccccc2)c(OC)c1	-	-	-	89	.	.
CC(C)c1ccc(/C=C2\SC(=S)N(CCC(=O)N3CCCCC3CCO)C2=O)cc1 (stereo not given)	-	-	-	56	-	-
CC(C)=CCSc1nnc([C@@H](NC(=O)OC(C)(C)C)C(C)C)o1	-	-	-	-	.	-
CCS(=O)(=O)Nc1cccc(C2=NN(S(C)(=O)=O)C(c3cccs3)C2)c1 (stereo not given)	-	-	-	-	-	-
CS(=O)(=O)N1N=C(c2ccc(Cl)cc2)CC1c1cccs1 (stereo not given)	.	-	-	-	.	126
CCCOc1ccccc1C1NC(=O)NC(C)=C1C(=O)OCc1ccccc1 (stereo not given)	.	-	-	.	-	-
COc1ccc(COC(=O)C2=C(C)NC(=O)NC2c2ccc(O)cc2)cc1 (stereo not given)	-	-	-	-	-	-
COc1ccc(COC(=O)C2=C(C)NC(=O)NC2c2ccc(OC)cc2)cc1 (stereo not given)	-	-	-	72	-	-
CC1=C(C(=O)OCc2ccc3c(c2)OCO3)C(c2ccccc2OCc2ccccc2)NC(=O)N1 (stereo not given)	-	.	.	61	-	.
CC1=C(C(=O)OCc2ccc3c(c2)OCO3)C(c2ccccc2)NC(=O)N1 (stereo not given)	-	-	-	107	56	-
Cn1nccc1-c1cc(Cl)cc(Cl)c1O	-	-	-	-	-	-
O=C(NNC(=O)c1ccccc1F)c1ccc(-n2cncn2)c([N+](=O)[O-])c1	-	.	.	-	.	-
SMILES	FN deposit inh	Yeast UUG start	Cneo AK release	HIV Env fusion	PGC1a acetyl inh	miR-122 sensor
COC(=O)c1c(C)oc(C)c1S(=O)(=O)NCC1CC1	-	-	-	-	-	97
C/C=C/c1ccc([C@H]2[C@@H](CO)N(S(=O)(=O)c3cccc(F)c3)[C@H]2C#N)cc1	-	.	-	.	-	.
C/C=C/c1ccc([C@H]2[C@@H](C#N)N(S(=O)(=O)c3cccc(F)c3)[C@H]2CO)cc1	-	.	91	.	-	.
O=[N+]([O-])c1ccc(Cl)c(C2Nc3cccc4cccc(c34)N2)c1	-	-	-	58	.	-
COc1ccc(N(C(=O)c2ccco2)C(C(=O)NC2CCCC2)c2ccc(OC)c(OC)c2)cc1 (stereo not given)	-	-	-	55	-	-
COc1ccc(S(=O)(=O)NNC(=O)C2Cc3c(ccc4ccccc34)O2)cc1 (stereo not given)	.	-	-	85	-	-
COCCNC(=O)C1Cc2c(ccc3ccccc23)O1 (stereo not given)	-	-	-	-	.	-
O=C(CN1CCN(c2cccc(Cl)c2)CC1)Nc1ccc([N+](=O)[O-])cc1C(=O)Nc1ccccc1F	-	.	.	93	.	.
NC(=O)C1CCN(c2nc(-c3ccc4occc(=O)c4c3)cs2)CC1	-	-	-	-	-	-
Cc1cc(S(=O)(=O)NCCc2ccccc2)c(C)s1	-	-	-	-	-	226
CCN(CC)S(=O)(=O)c1ccc(N2CCOCC2)c(NS(=O)(=O)c2ccc(C(C)C)cc2)c1	-	-	-	-	-	106
CCN(CC)S(=O)(=O)c1ccc(N2CCOCC2)c(NS(=O)(=O)c2cccs2)c1	-	-	-	.	.	.
COCC(=O)NC[C@@H]1N[C@@H](CO)[C@H]1c1ccc(C2=CCCC2)cc1	-	-	93	.	-	-
COCC(=O)NC[C@H]1N[C@H](CO)[C@@H]1c1ccc(C2=CCCCC2)cc1	-	-	-	.	-	-
CN(C[C@H]1N[C@@H](CO)[C@@H]1c1ccc(C2=CCCC2)cc1)C(=O)c1ccncc1	-	-	-	.	-	-
CN(C[C@H]1N[C@@H](CO)[C@@H]1c1ccc(C2=CCCC2)cc1)C(=O)c1ccc(F)cc1	-	-	-	.	79	-
CCOc1ccc(N2CC(C(=O)NCc3ccc(C)n3C)CC2=O)cc1 (stereo not given)	-	.	.	-	-	.
CCN(CC)CCn1c(SCC(=O)NCc2ccco2)nc2c(sc3ccccc32)c1=O	-	-	-	-	-	-
CCOc1ccc(NS(=O)(=O)c2ccc(NC(=S)NC(=O)C(C)C)cc2)cc1	.	-	-	.	-	115
CC(C)C(=O)NC(=S)Nc1ccc(S(=O)(=O)Nc2ccccc2)cc1	-	-	-	-	.	137
COc1ccc(NS(=O)(=O)c2cccc(C(=O)O)c2)cc1	.	-	-	.	-	.
CCCOc1ccc(Br)cc1CSC(=N)N	-	-	-	62	.	.
CCC(=O)N1C[C@H]2[C@@H](c3ccccc31)[C@@H](CO)N2CC1CCCC1	.	-	-	.	-	-
CCN(Cc1ccncc1)C(=O)c1ccc2c(c1)S(=O)(=O)c1ccccc1C2=O	39	.	.	-	-	-
CCCN(CCC)C(=O)c1ccc2c(c1)S(=O)(=O)c1ccccc1C2=O	-	-	-	-	-	-
O=C(NCC1CC1)Nc1ccccc1F	-	-	-	-	83	-
Cc1ccc(CN2CCC(CNC(=O)Nc3ccccc3F)CC2)cc1	-	-	-	-	-	-
COc1ccc(NC(=O)C2CCN(c3cc(-c4ccccc4)nc4ncnn34)CC2)cc1OC	-	.	.	60	.	.

High-throughput results from PubChem.
